{"source": "patent US20220280469A1", "about": "“PHARMACEUTICAL COMPOUND AND PREPARATION METHOD THEREFOR AND USE THEREOF” (priority 2019, published 2022)", "key": {"[1]": {"assay": "Pharmacokinetics and tumor targeting of Pt in tumor tissue of pancreatic cancer orthotopic transplantation model mice", "type": "in vivo, mouse", "details": "8 mg/kg", "protocol": "Mouse pancreatic cancer cells transfected with luciferase reporter genes were used to prepare mouse pancreatic cancer orthotopic transplantation models. The tumor volume of the mice were determined by injecting […] into tail veins, and the mice with similar tumor volume were selected for evaluation of systemic PK and tumor-targeting property. […] Pharmacokinetic parameters were calculated using PK Solver 2.0."}, "MIA PaCa-2 cells": {"tested_on": "MIA PaCa-2 cells", "assay": "In vitro cytotoxicity (CCK8, 48 h)", "type": "cell-based, human", "details": "CCK8, n=5"}, "[2]": {"assay": "Toxicity in PANC-1 subcutaneous tumor mice (liver HE, blood cell analysis, blood biochemistry)", "type": "in vivo, mouse", "details": "for liver damage (HE staining of liver tissue): after end of administration cycle"}, "[3]": {"assay": "Particle size by dynamic light scattering", "type": "physicochemical"}, "[4]": {"assay": "Release of cisplatin from the compound in phosphate buffer (HPLC)", "type": "physicochemical", "protocol": "The purification conditions were as follows: purification device: ÄKTA™ Purifier 100; desalting column: Hitrap Desalting 5 mL columns connected in series; eluent: deionized water. […] The pre-frozen product of the purified cisplatin-albumin compound was lyophilized using a lyophilizer, thus obtaining lyophilized powder of the purified cisplatin-albumin compound. The purified cisplatin-albumin compound was characterized for the following: particle size, electrophoretic analysis and mass spectrometry."}, "[5]": {"tested_on": "PANC-1 subcutaneous transplantation tumor", "details": "mouse, in vivo"}, "[6]": {"tested_on": "PANC-1 subcutaneous transplantation tumor", "assay": "Anti-tumor effect in PANC-1 subcutaneous transplantation tumor model", "details": "for inhibition of PANC-1 subcutaneous transplantation tumor (tumor volume, tumor weight): 4 mg/kg cisplatin (effective dose), tail vein, once a week, 4 times"}, "PANC-1 cells [7]": {"tested_on": "PANC-1 cells", "assay": "In vitro cytotoxicity (CCK8, 48 h)", "type": "cell-based, human", "details": "CCK8, n=5"}, "PANC-1 cells [8]": {"tested_on": "PANC-1 cells", "assay": "Cell migration (scratch) experiment", "type": "cell-based, human", "details": "compared among cisplatin and compounds with different DPRs", "protocol": "In the cell migration experiment, PANC-1 cells were used, cell density was set to be 50000 cells/well (a 6-well plate), and a DMEM high-glucose medium contained 10% fetal bovine serum and penicillin and streptomycin at a certain concentration. The cells were incubated in an incubator at 37° C./5% CO2, 3 duplicate wells were set for each group, and the culture system was 400 μL/well. The medium was replaced with low concentration serum medium (containing 1% FBS) for cell culturing when the confluence of cells reached 90% or more. A 1 mL pipette tip was vertically aimed to the central part of the lower end of the 6-well plate, and was then slightly pushed upwards to form a scratch. […] A picture was taken at 0 h. The mixture was incubated in an incubator at 37° C./5% CO2, and a proper time was decided according to healing degree to scan the plate with a cell imaging device. Migration area and migration rate were analyzed and calculated. Migration area=cell area at 24 h−cell area at 0 h; migration rate=migration area/cell area at 0 h; migration index=migration rate of compound treatment group/migration rate of control group."}, "[9]": {"assay": "Maximum tolerated dose of cisplatin-albumin compound and cisplatin", "type": "in vivo, Balb/C mouse"}, "[10]": {"tested_on": "MIA PaCa-2 pancreas orthotopic transplantation tumor", "assay": "Kaplan-Meier survival in MIA PaCa-2 pancreas orthotopic transplantation model", "details": "once every 7 days, three times"}, "[11]": {"details": "11 days after end of administration, 4 mg/kg"}}, "note": "“Also recorded” adds a separate entry of the source."}
{"substance": "cisplatin-albumin compound", "values": [{"measurement": "t1/2ka at tumor site", "setting": "[1]; tumor site", "result": 8.65, "unit": "h"}, {"measurement": "mean retention time MRT of Pt in tumor tissues, improvement compared with cisplatin group", "setting": "[1]; tumor tissue", "result": "≥ 10", "unit": "times"}, {"measurement": "cytotoxicity to MIA PaCa-2", "setting": "MIA PaCa-2 cells", "result": "lower than that of cisplatin"}, {"measurement": "renal function (blood biochemical analysis)", "setting": "[2]; 11 days after administration, compared with control group", "result": "no significant change in the renal function"}, {"measurement": "tendency towards myelosuppression", "setting": "[2]; from lymphocyte and neutrophil analysis, 11 days after administration", "result": "no significant tendency towards myelosuppression"}, {"measurement": "average particle size (number average particle size)", "setting": "[3]; dynamic light scattering", "result": "3-10 nm"}, {"measurement": "average particle size of the reaction system", "setting": "[3]; feed ratio of 24 (cisplatin to albumin)", "result": 326, "unit": "nm"}, {"measurement": "release rate of cisplatin", "setting": "[4]; phosphate buffer with a pH of 5.0", "result": "significantly improved"}, {"measurement": "release amount of cisplatin", "setting": "[4]; phosphate buffer with a pH of 7.4, HPLC", "result": "smaller than 10%"}, {"measurement": "body weight of the mice during the administration process", "setting": "[5]", "result": "not significant"}]}
{"substance": "cisplatin-albumin compound 1:1", "values": [{"measurement": "average platelet volume", "setting": "[2]; [11]", "result": "irreversible reduction of the platelet volume"}, {"measurement": "number of platelets compared with the control group", "setting": "[2]; [11]", "result": "reduced"}, {"measurement": "liver damage (HE staining of liver tissue)", "setting": "[2]; 4 mg/kg", "result": "significant liver damage"}, {"measurement": "inhibition of PANC-1 subcutaneous transplantation tumor (tumor volume, tumor weight)", "setting": "[6]", "result": "significant inhibition effect"}]}
{"substance": "cisplatin-albumin compound 6:1", "values": [{"measurement": "ID% (drug amount at a tumor site x 100%/injected drug amount)", "setting": "[1]; tumor site", "result": "more than 25%"}, {"measurement": "cytotoxicity to PANC-1", "setting": "PANC-1 cells [7]", "result": "lower than that of cisplatin"}, {"measurement": "migration rate of PANC-1 cells", "setting": "PANC-1 cells [8]", "result": "lowest"}, {"measurement": "number of platelets compared with the control group", "setting": "[2]; [11]", "result": "not significantly reduced"}, {"measurement": "liver damage (HE staining of liver tissue)", "setting": "[2]; 4 mg/kg", "result": "no obvious liver damage"}, {"measurement": "survival of mice after administration", "setting": "[9]; 40 mg/kg and 60 mg/kg (dose of cisplatin in compound)", "result": "all survived"}, {"measurement": "body weight after administration in MTD experiment", "setting": "[9]; compound 40 and 60 mg/kg, cisplatin 15-40 mg/kg", "result": "gained weight"}, {"measurement": "MTD", "setting": "[9]; tail vein, for the compound: dose of cisplatin in compound", "result": "> 60", "unit": "mg/kg"}, {"measurement": "inhibition of PANC-1 subcutaneous transplantation tumor (tumor volume, tumor weight)", "setting": "[6]", "result": "significant inhibition effect; also recorded: best tumor-inhibition effect"}, {"measurement": "tumor progression (HE staining of tumor tissue)", "setting": "[6]; after end of administration cycle, 4 mg/kg", "result": "inhibited"}, {"measurement": "cell proliferation of tumor tissues (Ki67)", "setting": "[6]; compared with cisplatin and compounds with other DPRs", "result": "remarkably lower"}, {"measurement": "apoptosis of tumor cells (TUNEL)", "setting": "[6]; compared with other groups", "result": "higher than that in other groups"}, {"measurement": "survival advantage (Kaplan-Meier), low-dose group", "setting": "[10]; 1 mg/kg effective cisplatin dose", "result": "significantly higher than that of other experimental groups"}, {"measurement": "body weight of the mice in the whole treatment process", "setting": "[10]; orthotopic model", "result": "not significantly reduced"}, {"measurement": "survival advantage (Kaplan-Meier)", "setting": "[10]; tail vein, P<0.05 vs cisplatin 5 mg/kg", "result": "greater than that of the cisplatin group"}]}
{"substance": "cisplatin-albumin compound 12:1", "values": [{"measurement": "number of platelets compared with the control group", "setting": "[2]; [11]", "result": "reduced"}, {"measurement": "liver damage (HE staining of liver tissue)", "setting": "[2]; 4 mg/kg", "result": "significant liver damage"}, {"measurement": "inhibition of PANC-1 subcutaneous transplantation tumor (tumor volume, tumor weight)", "setting": "[6]", "result": "no significant inhibition effect"}]}
